Reference: patent US20260384442A1, “MACROCYCLIC COMPOUND AS CDK9 INHIBITOR AND USE THEREOF” (published 2026)

Chains of the proteins cited; added tags and fusions are not shown.
UniProt P23458, whole entry: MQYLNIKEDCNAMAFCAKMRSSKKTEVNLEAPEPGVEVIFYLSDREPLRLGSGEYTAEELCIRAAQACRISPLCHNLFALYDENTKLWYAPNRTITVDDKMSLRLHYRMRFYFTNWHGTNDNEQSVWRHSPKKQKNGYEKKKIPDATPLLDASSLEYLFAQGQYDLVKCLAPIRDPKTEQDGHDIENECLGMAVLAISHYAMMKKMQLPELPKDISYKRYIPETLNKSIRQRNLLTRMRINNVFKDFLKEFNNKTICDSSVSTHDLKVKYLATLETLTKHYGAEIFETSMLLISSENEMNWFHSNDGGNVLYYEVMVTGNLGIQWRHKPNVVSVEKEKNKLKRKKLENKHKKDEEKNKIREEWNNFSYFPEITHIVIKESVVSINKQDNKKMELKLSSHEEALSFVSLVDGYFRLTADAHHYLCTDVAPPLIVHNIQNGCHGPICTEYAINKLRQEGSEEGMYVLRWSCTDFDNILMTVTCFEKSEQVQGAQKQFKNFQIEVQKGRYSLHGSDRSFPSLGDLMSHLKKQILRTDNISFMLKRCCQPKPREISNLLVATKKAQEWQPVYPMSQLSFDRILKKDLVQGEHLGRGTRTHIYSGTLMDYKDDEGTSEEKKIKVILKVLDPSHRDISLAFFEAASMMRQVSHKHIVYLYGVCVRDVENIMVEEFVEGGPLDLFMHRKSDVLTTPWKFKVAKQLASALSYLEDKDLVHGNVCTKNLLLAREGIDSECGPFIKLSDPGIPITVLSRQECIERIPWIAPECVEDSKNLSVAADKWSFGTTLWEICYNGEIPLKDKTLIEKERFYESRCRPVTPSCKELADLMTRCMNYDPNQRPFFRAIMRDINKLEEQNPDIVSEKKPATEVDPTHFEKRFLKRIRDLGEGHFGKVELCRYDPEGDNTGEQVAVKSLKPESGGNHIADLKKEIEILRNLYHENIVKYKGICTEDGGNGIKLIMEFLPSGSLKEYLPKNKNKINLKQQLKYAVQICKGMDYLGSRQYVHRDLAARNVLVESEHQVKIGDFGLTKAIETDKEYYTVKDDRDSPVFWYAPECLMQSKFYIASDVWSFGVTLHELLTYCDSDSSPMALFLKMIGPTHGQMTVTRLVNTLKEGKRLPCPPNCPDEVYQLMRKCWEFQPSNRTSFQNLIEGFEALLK
UniProt Q5S007, whole entry: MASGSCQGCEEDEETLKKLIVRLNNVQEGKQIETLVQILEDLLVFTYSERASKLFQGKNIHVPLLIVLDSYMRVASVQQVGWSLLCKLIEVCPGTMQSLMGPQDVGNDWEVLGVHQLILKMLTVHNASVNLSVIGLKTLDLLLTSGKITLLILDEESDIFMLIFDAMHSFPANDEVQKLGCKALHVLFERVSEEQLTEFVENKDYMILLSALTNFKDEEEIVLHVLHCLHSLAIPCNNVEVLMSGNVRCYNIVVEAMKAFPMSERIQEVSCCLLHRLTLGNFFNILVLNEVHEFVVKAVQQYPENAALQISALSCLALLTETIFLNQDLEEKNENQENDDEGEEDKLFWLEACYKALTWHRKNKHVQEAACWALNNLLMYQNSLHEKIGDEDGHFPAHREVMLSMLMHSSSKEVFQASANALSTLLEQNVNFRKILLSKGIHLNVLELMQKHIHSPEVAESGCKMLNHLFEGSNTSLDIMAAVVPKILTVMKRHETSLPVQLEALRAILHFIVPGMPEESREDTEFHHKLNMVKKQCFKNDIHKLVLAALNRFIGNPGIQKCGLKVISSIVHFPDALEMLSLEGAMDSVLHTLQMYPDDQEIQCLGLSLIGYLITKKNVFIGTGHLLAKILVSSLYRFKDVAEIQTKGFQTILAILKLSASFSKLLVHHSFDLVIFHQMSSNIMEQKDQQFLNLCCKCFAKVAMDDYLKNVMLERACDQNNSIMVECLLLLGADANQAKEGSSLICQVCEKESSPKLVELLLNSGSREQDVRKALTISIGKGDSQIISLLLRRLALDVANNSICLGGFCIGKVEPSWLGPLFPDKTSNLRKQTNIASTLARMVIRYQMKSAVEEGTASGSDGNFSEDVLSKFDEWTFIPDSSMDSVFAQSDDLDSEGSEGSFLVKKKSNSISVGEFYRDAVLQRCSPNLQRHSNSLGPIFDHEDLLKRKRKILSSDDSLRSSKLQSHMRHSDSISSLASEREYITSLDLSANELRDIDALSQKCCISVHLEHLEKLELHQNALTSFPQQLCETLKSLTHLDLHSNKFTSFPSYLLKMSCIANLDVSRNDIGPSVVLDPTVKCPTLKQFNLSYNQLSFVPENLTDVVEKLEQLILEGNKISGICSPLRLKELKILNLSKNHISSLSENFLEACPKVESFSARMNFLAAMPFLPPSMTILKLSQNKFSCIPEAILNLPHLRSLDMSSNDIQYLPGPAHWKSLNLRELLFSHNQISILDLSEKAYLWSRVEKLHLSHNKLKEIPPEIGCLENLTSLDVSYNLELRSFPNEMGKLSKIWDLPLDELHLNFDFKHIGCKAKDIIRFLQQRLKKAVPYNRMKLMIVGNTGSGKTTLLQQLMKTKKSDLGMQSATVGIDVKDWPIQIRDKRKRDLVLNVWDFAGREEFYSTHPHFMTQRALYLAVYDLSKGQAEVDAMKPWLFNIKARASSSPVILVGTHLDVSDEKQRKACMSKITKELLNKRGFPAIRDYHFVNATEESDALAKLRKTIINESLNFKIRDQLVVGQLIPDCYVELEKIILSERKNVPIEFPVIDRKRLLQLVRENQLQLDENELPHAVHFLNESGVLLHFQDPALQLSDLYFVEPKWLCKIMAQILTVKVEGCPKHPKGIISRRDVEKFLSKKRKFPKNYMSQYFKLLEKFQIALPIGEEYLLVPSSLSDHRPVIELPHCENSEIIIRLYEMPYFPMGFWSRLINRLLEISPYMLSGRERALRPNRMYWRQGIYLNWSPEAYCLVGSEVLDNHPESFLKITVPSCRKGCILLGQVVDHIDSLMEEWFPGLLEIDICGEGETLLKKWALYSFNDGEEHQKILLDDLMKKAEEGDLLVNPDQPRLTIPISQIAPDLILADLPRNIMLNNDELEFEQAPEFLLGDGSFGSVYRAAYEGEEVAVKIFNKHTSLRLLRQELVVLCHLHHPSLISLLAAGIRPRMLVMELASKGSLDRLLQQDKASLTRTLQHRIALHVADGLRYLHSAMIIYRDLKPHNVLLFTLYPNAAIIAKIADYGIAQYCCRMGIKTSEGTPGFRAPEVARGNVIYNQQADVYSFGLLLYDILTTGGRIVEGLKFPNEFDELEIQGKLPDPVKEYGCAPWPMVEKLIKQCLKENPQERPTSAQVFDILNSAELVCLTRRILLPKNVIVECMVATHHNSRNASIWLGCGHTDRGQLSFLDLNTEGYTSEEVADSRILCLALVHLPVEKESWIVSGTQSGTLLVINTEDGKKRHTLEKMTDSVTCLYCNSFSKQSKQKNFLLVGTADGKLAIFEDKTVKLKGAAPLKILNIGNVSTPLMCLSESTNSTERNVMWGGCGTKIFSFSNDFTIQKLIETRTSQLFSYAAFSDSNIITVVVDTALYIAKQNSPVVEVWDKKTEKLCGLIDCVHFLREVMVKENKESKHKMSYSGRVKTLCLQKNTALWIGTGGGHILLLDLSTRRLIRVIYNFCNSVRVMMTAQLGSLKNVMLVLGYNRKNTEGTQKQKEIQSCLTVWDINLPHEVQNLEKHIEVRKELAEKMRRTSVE
UniProt O60674, whole entry: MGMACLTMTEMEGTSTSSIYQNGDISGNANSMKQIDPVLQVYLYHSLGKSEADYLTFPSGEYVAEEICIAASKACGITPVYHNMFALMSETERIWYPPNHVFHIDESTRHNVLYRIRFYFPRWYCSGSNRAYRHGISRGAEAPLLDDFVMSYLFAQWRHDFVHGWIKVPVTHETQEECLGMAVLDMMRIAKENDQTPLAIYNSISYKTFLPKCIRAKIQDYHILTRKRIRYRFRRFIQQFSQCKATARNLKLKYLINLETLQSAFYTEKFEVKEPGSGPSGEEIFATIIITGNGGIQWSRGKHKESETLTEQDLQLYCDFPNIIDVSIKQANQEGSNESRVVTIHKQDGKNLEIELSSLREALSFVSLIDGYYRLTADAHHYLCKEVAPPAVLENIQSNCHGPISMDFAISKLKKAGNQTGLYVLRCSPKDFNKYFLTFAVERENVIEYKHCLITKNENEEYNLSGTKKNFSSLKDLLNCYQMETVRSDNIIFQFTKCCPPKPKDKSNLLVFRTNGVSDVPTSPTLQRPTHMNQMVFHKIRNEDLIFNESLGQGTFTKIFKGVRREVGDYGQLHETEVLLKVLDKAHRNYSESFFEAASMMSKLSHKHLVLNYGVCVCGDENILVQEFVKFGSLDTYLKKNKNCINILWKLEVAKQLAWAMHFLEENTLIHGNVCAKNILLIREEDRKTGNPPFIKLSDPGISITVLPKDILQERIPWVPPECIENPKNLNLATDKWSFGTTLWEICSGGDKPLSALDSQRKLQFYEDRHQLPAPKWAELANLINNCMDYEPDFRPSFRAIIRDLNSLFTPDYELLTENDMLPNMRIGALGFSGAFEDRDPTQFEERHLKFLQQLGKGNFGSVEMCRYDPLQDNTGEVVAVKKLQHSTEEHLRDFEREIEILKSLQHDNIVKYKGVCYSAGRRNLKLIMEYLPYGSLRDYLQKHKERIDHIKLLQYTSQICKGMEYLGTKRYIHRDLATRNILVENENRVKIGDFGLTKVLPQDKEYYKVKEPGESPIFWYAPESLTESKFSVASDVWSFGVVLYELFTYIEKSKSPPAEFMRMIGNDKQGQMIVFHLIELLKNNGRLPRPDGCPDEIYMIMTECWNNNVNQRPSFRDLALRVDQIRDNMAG
UniProt P50750, whole entry: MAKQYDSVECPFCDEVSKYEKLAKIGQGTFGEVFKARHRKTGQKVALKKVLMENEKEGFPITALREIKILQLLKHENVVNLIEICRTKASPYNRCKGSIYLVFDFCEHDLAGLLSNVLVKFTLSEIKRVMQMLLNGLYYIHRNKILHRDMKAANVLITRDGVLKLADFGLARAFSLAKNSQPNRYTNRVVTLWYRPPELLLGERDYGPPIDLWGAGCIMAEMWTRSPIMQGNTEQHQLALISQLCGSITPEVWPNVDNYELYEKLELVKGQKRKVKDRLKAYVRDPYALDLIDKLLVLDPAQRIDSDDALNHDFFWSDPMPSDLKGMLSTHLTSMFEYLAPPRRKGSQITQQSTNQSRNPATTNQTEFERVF
UniProt P06493, whole entry: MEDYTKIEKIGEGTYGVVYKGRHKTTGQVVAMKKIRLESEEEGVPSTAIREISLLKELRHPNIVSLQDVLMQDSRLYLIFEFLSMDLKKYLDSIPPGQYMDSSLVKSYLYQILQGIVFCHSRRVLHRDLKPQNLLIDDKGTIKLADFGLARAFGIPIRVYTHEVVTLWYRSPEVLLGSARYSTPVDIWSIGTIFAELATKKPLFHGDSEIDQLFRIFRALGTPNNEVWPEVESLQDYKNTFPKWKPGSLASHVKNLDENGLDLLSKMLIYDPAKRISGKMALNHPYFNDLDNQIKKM
UniProt P50613, whole entry: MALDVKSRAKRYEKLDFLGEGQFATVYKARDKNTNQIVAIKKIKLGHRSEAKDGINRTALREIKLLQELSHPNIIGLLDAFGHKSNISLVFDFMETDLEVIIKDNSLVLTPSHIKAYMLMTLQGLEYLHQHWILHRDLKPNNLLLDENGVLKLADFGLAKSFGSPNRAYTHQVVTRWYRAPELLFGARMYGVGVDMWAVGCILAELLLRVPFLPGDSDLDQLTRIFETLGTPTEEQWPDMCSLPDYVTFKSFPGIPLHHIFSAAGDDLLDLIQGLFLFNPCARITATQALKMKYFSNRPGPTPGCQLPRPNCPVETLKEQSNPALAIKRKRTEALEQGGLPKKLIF
UniProt Q08881, whole entry: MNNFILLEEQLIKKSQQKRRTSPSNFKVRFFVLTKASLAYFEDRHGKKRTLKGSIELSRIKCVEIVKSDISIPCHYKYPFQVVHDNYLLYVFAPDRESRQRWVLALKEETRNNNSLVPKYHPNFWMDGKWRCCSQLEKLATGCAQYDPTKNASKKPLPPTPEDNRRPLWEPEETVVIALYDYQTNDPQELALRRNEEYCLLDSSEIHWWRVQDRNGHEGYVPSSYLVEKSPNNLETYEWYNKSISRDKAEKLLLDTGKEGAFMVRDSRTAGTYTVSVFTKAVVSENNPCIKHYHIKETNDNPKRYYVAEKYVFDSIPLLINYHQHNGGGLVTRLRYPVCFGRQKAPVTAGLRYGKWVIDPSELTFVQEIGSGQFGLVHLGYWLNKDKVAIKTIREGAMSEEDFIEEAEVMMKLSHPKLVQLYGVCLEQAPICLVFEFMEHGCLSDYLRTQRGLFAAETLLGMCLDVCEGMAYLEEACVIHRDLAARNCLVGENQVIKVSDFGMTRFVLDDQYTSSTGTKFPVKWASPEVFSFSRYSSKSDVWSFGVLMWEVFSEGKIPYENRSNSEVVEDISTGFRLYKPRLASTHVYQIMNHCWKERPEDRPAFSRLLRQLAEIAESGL

Columns and labels:
[1] = molecular target: JAK1 (Homo sapiens, UniProt P23458); assay: Kinase selectivity at 10 nM, JAK1
Protocol: (§1) The inhibitory effect of the compounds on the activity of CDK9 protein kinase was detected by the caliper mobility shift assay method. 250 nL of the compound at 100-fold final concentration was transferred to a target 384-well-plate with a dispenser Echo 550. A kinase solution at 2.5-fold final concentration was prepared using 1× kinase buffer. 10 μL of the kinase solution at 2.5-fold final concentration was added to the compound well and positive control well respectively. 10 μL of 1× kinase buffer was added to the negative control well. The 384-well plate was centrifuged at 1000 rpm for 30 seconds and incubated at room temperature for 10 minutes. A mixed solution of ATP and kinase substrate at 5/3-fold final concentration was prepared with 1× kinase buffer, and to the 384-well plate was added with 15 μL per well of the mixed solution of ATP and substrate at 5/3-fold final concentration to start the reaction. The plate was centrifuged at 1000 rpm for 30 seconds, shaken to mix evenly, and incubated at room temperature for a corresponding time. 30 μL of detection stopping solution was added to terminate the kinase reaction. The 384-well plate was centrifuged at 1000 rpm for 30 seconds and shaken to mix evenly. The conversion rate was read with Caliper EZ Reader. The percent conversion inhibition rate=(% positive control conversion rate mean−% sample conversion rate/(% positive control conversion rate mean−% negative control conversion rate mean). Among them: negative control wells represent the conversion rate readings of kinase buffer background wells; positive control wells represent the conversion rate readings of wells without inhibition by compound. With the log value of concentration as the x-axis and the percentage inhibition rate as the y-axis, a dose-response curve was fitted using the log (inhibitor) vs. response—Variable slope of the analysis software GraphPad Prism 5 to obtain the IC50 value of each compound on enzyme activity. Calculation formula: y=Bottom+(Top− Bottom)/(1+10^((Log IC50−x)×hillslope)), x: logarithm of inhibitor concentration; y: % inhibition rate.
(§2) According to the description of the above experiment on kinase activity inhibition, some compounds were tested for their selective inhibition rate against the kinases of CDK7, CDK9, JAK1, JAK2, JAK3, ITK, RET, TYK2, and LRRK2 at 10 nM.

[2] = molecular target: LRRK2 (Homo sapiens, UniProt Q5S007); assay: Kinase selectivity at 10 nM, LRRK2
Protocol: as §1, with “rate. […]” for “rate.”

[3] = molecular target: JAK2 (Homo sapiens, UniProt O60674); assay: Kinase selectivity at 10 nM, JAK2
Protocol: as §1, §2

[4] = molecular target: CDK9 (Homo sapiens, UniProt P50750); assay: Inhibition on CDK9 kinase activity, caliper mobility shift assay; conditions: 10 nM; for inhibition rate on CDK9 kinase activity: duplicate wells (Table 1); for inhibition rate CDK9: selectivity panel (Table 3)
Protocol: Compounds were tested at a concentration of 10 nM with detection in duplicate wells, or tested at 10 concentrations starting from 10 μM with three-fold serial dilutions, with detection in duplicate wells.
as §1, §2

[5] = molecular target: CDK19/CycC (Homo sapiens, UniProt Q9BWU1); assay: CDK kinase selectivity (HTRF / ADP-Glo), CDK19/CycC; conditions: 0.1 μM, duplicate wells
Protocol: (§3) The selectivity of the test compounds against CDK kinases was detected. The compounds were tested at a concentration of 0.1 μM, and the inhibition rate of CDK kinases by the compounds was detected in duplicate wells, mainly using HTRF and ADP-Glo detection methods.
(§4) The HTRF detection method was conducted as follows: 2-fold ATP/substrate solution and 2-fold kinase/metal ion solution were prepared respectively with a kinase reaction buffer, and 25 nL of diluted compound solution was transferred to a 384-well detection plate with Echo 655. After centrifugation, the plate was added with 2.5 μL of 2-fold kinase/metal ion solution and incubated at 25 °C for 10 minutes. After 10 minutes, 2.5 μL of 2-fold substrate/ATP solution was added to the 384-well detection plate and incubated at 25 °C for 60 minutes. 2 kinase detection reagent (XL665 and antibody) was prepared with detection buffer, and 5 μL of kinase detection reagent was added to the 384-well detection plate and incubated at 25 °C for 60 minutes. The fluorescence signals at 620 nm (Cryptate) and 665 nm (XL665) were read by the microplate reader, and the ratio and the inhibition rate of kinase activity by the compound were calculated.
(§5) The ADP-Glo detection method was conducted as follows. […] The chemiluminescent signal was detected with a microplate reader and the inhibition rate of kinase activity was calculated.

[6] = molecular target: CDK1/CycE1 (Homo sapiens, UniProt P06493); assay: CDK kinase selectivity (HTRF / ADP-Glo), CDK1/CycE1; conditions: 0.1 μM, duplicate wells
Protocol: as §3, §4, §5

[7] = molecular target: RET (Homo sapiens, UniProt P07949); assay: Kinase selectivity at 10 nM, RET
Protocol: as §1, with “A mixed solution of ATP and kinase substrate at 5/3-fold final concentration was prepared with 1× kinase buffer, and to the 384-well plate was added with 15 μL per well of the mixed solution of ATP and substrate at 5/3-fold final concentration to start the reaction. The plate was centrifuged at 1000 rpm for 30 seconds, shaken to mix evenly, and incubated at room temperature for a corresponding time. 30 μL of detection stopping solution was added to terminate the kinase reaction. The 384-well plate was centrifuged at 1000 rpm for 30 seconds and shaken to mix evenly.” left out, “Calculation formula: y=Bottom+(Top− Bottom)/(1+10^((Log IC50−x)×hillslope)), x: logarithm of inhibitor concentration; y: % inhibition rate.” left out

[8] = molecular target: JAK3 (Homo sapiens, UniProt P52333); assay: Kinase selectivity at 10 nM, JAK3
Protocol: as §1, with “A mixed solution of ATP and kinase substrate at 5/3-fold final concentration was prepared with 1× kinase buffer, and to the 384-well plate was added with 15 μL per well of the mixed solution of ATP and substrate at 5/3-fold final concentration to start the reaction. The plate was centrifuged at 1000 rpm for 30 seconds, shaken to mix evenly, and incubated at room temperature for a corresponding time. 30 μL of detection stopping solution was added to terminate the kinase reaction. The 384-well plate was centrifuged at 1000 rpm for 30 seconds and shaken to mix evenly.” left out, “Calculation formula: y=Bottom+(Top− Bottom)/(1+10^((Log IC50−x)×hillslope)), x: logarithm of inhibitor concentration; y: % inhibition rate.” left out

[9] = molecular target: CDK2/CyCA2 (Homo sapiens, UniProt P24941); assay: CDK kinase selectivity (HTRF / ADP-Glo), CDK2/CyCA2; conditions: 0.1 μM, duplicate wells
Protocol: as §3, §4, §5

[10] = molecular target: CDK1/CycA2 (Homo sapiens, UniProt P06493); assay: CDK kinase selectivity (HTRF / ADP-Glo), CDK1/CycA2; conditions: 0.1 μM, duplicate wells
Protocol: as §3, §4, §5

[11] = molecular target: CDK7/CycH/MAT1 (Homo sapiens, UniProt P50613); assay: CDK kinase selectivity (HTRF / ADP-Glo), CDK7/CycH/MAT1; conditions: 0.1 μM, duplicate wells
Protocol: as §3, §4, §5

[12] = molecular target: CDK18/CyclinY (Homo sapiens, UniProt Q07002); assay: CDK kinase selectivity (HTRF / ADP-Glo), CDK18/CyclinY; conditions: 0.1 μM, duplicate wells
Protocol: as §3, §4, §5

[13] = molecular target: CDK4/CycD3 (Homo sapiens, UniProt P11802); assay: CDK kinase selectivity (HTRF / ADP-Glo), CDK4/CycD3; conditions: 0.1 μM, duplicate wells
Protocol: as §3, §4, §5

[14] = molecular target: CDK6/CycD3 (Homo sapiens, UniProt Q00534); assay: CDK kinase selectivity (HTRF / ADP-Glo), CDK6/CycD3; conditions: 0.1 μM, duplicate wells
Protocol: as §3, §4, §5

[15] = molecular target: CDK5/p25NCK (Homo sapiens, UniProt Q00535); assay: CDK kinase selectivity (HTRF / ADP-Glo), CDK5/p25NCK; conditions: 0.1 μM, duplicate wells
Protocol: as §3, §4, §5

[16] = molecular target: CDK16/CyclinY (Homo sapiens, UniProt Q00536); assay: CDK kinase selectivity (HTRF / ADP-Glo), CDK16/CyclinY; conditions: 0.1 μM, duplicate wells
Protocol: as §3, §4, §5

[17] = molecular target: CDK9/CycT1 (Homo sapiens, UniProt P50750); assay: CDK kinase selectivity (HTRF / ADP-Glo), CDK9/CycT1; conditions: 0.1 μM, duplicate wells
Protocol: as §3, §4, §5

[18] = molecular target: CDK12/CyclinK (Homo sapiens, UniProt Q9NYV4); assay: CDK kinase selectivity (HTRF / ADP-Glo), CDK12/CyclinK; conditions: 0.1 μM, duplicate wells
Protocol: as §3, §4, §5

[19] = molecular target: TYK2 (Homo sapiens, UniProt P29597); assay: Kinase selectivity at 10 nM, TYK2
Protocol: as §1, with “A mixed solution of ATP and kinase substrate at 5/3-fold final concentration was prepared with 1× kinase buffer, and to the 384-well plate was added with 15 μL per well of the mixed solution of ATP and substrate at 5/3-fold final concentration to start the reaction. The plate was centrifuged at 1000 rpm for 30 seconds, shaken to mix evenly, and incubated at room temperature for a corresponding time. 30 μL of detection stopping solution was added to terminate the kinase reaction. The 384-well plate was centrifuged at 1000 rpm for 30 seconds and shaken to mix evenly.” left out, “Calculation formula: y=Bottom+(Top− Bottom)/(1+10^((Log IC50−x)×hillslope)), x: logarithm of inhibitor concentration; y: % inhibition rate.” left out

[20] = molecular target: CDK5/p35NCK (Homo sapiens, UniProt Q00535); assay: CDK kinase selectivity (HTRF / ADP-Glo), CDK5/p35NCK; conditions: 0.1 μM, duplicate wells
Protocol: as §3, §4, §5

[21] = molecular target: CDK4/cycD1 (Homo sapiens, UniProt P11802); assay: CDK kinase selectivity (HTRF / ADP-Glo), CDK4/cycD1; conditions: 0.1 μM, duplicate wells
Protocol: as §3, §4, §5

[22] = molecular target: CDK13/CyclinK (Homo sapiens, UniProt Q14004); assay: CDK kinase selectivity (HTRF / ADP-Glo), CDK13/CyclinK; conditions: 0.1 μM, duplicate wells
Protocol: as §3, §4, §5

[23] = molecular target: CDK1/CycB1 (Homo sapiens, UniProt P06493); assay: CDK kinase selectivity (HTRF / ADP-Glo), CDK1/CycB1; conditions: 0.1 μM, duplicate wells
Protocol: as §3, §4, §5

[24] = molecular target: CDK2/CycE1 (Homo sapiens, UniProt P24941); assay: CDK kinase selectivity (HTRF / ADP-Glo), CDK2/CycE1; conditions: 0.1 μM, duplicate wells
Protocol: as §3, §4, §5

[25] = molecular target: CDK3/CycE1 (Homo sapiens, UniProt Q00526); assay: CDK kinase selectivity (HTRF / ADP-Glo), CDK3/CycE1; conditions: 0.1 μM, duplicate wells
Protocol: as §3, §4, §5

[26] = molecular target: CDK6/CycD1 (Homo sapiens, UniProt Q00534); assay: CDK kinase selectivity (HTRF / ADP-Glo), CDK6/CycD1; conditions: 0.1 μM, duplicate wells
Protocol: as §3, §4, §5

[27] = molecular target: ITK (Homo sapiens, UniProt Q08881); assay: Kinase selectivity at 10 nM, ITK
Protocol: as §1, with “A mixed solution of ATP and kinase substrate at 5/3-fold final concentration was prepared with 1× kinase buffer, and to the 384-well plate was added with 15 μL per well of the mixed solution of ATP and substrate at 5/3-fold final concentration to start the reaction. The plate was centrifuged at 1000 rpm for 30 seconds, shaken to mix evenly, and incubated at room temperature for a corresponding time. 30 μL of detection stopping solution was added to terminate the kinase reaction. The 384-well plate was centrifuged at 1000 rpm for 30 seconds and shaken to mix evenly.” left out, “Calculation formula: y=Bottom+(Top− Bottom)/(1+10^((Log IC50−x)×hillslope)), x: logarithm of inhibitor concentration; y: % inhibition rate.” left out

[28] = molecular target: CDK7 (Homo sapiens, UniProt P50613); assay: Kinase selectivity at 10 nM, CDK7
Protocol: as §1, with “A mixed solution of ATP and kinase substrate at 5/3-fold final concentration was prepared with 1× kinase buffer, and to the 384-well plate was added with 15 μL per well of the mixed solution of ATP and substrate at 5/3-fold final concentration to start the reaction. The plate was centrifuged at 1000 rpm for 30 seconds, shaken to mix evenly, and incubated at room temperature for a corresponding time. 30 μL of detection stopping solution was added to terminate the kinase reaction. The 384-well plate was centrifuged at 1000 rpm for 30 seconds and shaken to mix evenly.” left out, “Calculation formula: y=Bottom+(Top− Bottom)/(1+10^((Log IC50−x)×hillslope)), x: logarithm of inhibitor concentration; y: % inhibition rate.” left out

N#Cc1cnc2nc1NCCCCCNCc1cccc(c1)N2
C (<25%): inhibition rate JAK1 [1] | inhibition rate LRRK2 [2] | inhibition rate JAK2 [3]
B (25-49%): inhibition rate on CDK9 kinase activity [4] | inhibition rate CDK9 [4]

Cc1ccc2cc1-c1nc(ncc1Cl)Nc1cccc(c1)NC/C=C\CN2
C (<25%): inhibition rate JAK1 [1] | inhibition rate LRRK2 [2] | inhibition rate JAK2 [3]
A (>50%): inhibition rate on CDK9 kinase activity [4] | inhibition rate CDK9 [4]

Clc1cnc2nc1NCCCCCNCc1cccc(c1)N2
B (25-49%): inhibition rate JAK2 [3]
C (<25%): inhibition rate JAK1 [1] | inhibition rate LRRK2 [2] | inhibition rate RET [7] | inhibition rate JAK3 [8] | inhibition rate TYK2 [19] | inhibition rate ITK [27] | inhibition rate CDK7 [28]
D (<50%): inhibition rate CDK19/CycC [5] | inhibition rate CDK1/CycE1 [6] | inhibition rate CDK2/CyCA2 [9] | inhibition rate CDK1/CycA2 [10] | inhibition rate CDK18/CyclinY [12] | inhibition rate CDK6/CycD3 [14] | inhibition rate CDK5/p35NCK [20] | inhibition rate CDK4/cycD1 [21] | inhibition rate CDK1/CycB1 [23] | inhibition rate CDK6/CycD1 [26]
C (50-75%): inhibition rate CDK7/CycH/MAT1 [11] | inhibition rate CDK4/CycD3 [13] | inhibition rate CDK5/p25NCK [15] | inhibition rate CDK16/CyclinY [16] | inhibition rate CDK12/CyclinK [18] | inhibition rate CDK13/CyclinK [22] | inhibition rate CDK2/CycE1 [24] | inhibition rate CDK3/CycE1 [25]
A (>95%): inhibition rate CDK9/CycT1 [17]
A (>50%): inhibition rate on CDK9 kinase activity [4] | inhibition rate CDK9 [4]

Cc1nc2sc1-c1nc(ncc1F)Nc1cccc(c1)NCCOCCN2
B (25-49%): inhibition rate on CDK9 kinase activity [4]

Clc1cnc2nc1OCCCCCNCc1cccc(c1)N2
C (<25%): inhibition rate JAK1 [1] | inhibition rate JAK2 [3]
A (>50%): inhibition rate on CDK9 kinase activity [4] | inhibition rate CDK9 [4]
